# According to PubChem BioAssay (Tox21):
# “And” between values parts separate entries of the source, which are not always exact repeats. Identical values can stand only once. The entries are a selection whose mix differs from that of the whole data set. The source made the active and inactive calls. The call rests on the fitted dose curve; in most records, active means well fitted activation curve with a large enough effect in the repeat runs; inconclusive means weak or mixed curves; inactive means flat fitted curve, though single readings scatter.
# Test: A CellTox Green Cytotoxicity Assay to monitor cytotoxicity in HepG2 cells - 0 hour (AID 1224882); further: nearly all actives have a fitted effect of over 35% in size
# Conditions: CellTox Green fluorescence, at 35.3 µM (top of the series)
# Text: National Center for Advancing Translational Sciences [NCATS]
# NIH Chemical Genomics Center [NCGC]
# U.S. Environmental Protection Agency [EPA]
# National Institutes of Environmental Health Sciences [NIEHS]
# National Toxicology Program [NTP]
# Cell-based models are critical for drug discovery. Determining the natural cytotoxic effects resulting from test compounds is an essential research activity. A CellTox Green Cytotoxicity Assay to monitor cytotoxicity in real time of continues cell culture during 40 hours of the compound treatment was used to screen Tox21 10K library compounds in HepG2 cells. CellTox Green Cytotoxicity Assay is a nonlytic, homogeneous, biofluorescent method to measure cytotoxicity in cell culture after experimental manipulation. The assay system uses a proprietary asymmetric cyanine dye that is excluded from viable cells but preferentially stains the dead cell's DNA. […] Viable cells produce no appreciable increases in fluorescence. Therefore, the fluorescence signal produced by the binding interaction with dead cell DNA is proportional to cytotoxicity.
# The mixture of HepG2 cell suspension and reagents were dispensed at 600cells/6 ul/well in 1536-well tissue culture treated black solid bottom plates using a Multidrop dispenser. After the assay plates were incubated at a 37 C/5% CO2 incubator for 5 hours, 23 nL of compounds dissolved in DMSO, positive and negative controls was transferred to the assay plate by a pintool work station. The plates were incubated at 37 C for 40 hours. The fluorescence intensity were measured at 0h, 8h, 16h, 24h, 32h and 40h time points using ViewLux plate reader during compound treatment.
# On the % scale 0 is the no-effect control and ±100 the full control effect.
row,Compound,cytotoxicity
1,NC(=O)Nc1ccc([As](=O)(O)O)cc1,inactive: -11.8%

# Same assay, conditions: CellTox Green fluorescence, at 76.8 µM (top of the series)
row,Compound,cytotoxicity
1,NC(=O)Nc1ccc([As](=O)(O)O)cc1,inactive: -7.31%

# Same assay, conditions: CellTox Green fluorescence; at 76.8 µM (top of the series) unless noted
row,Compound,cytotoxicity
1,CC(C)OP(=S)(OC(C)C)SCCNS(=O)(=O)c1ccccc1,inactive: 4.23%
2,CN(N=O)C(=N)N[N+](=O)[O-],inactive: 1.05%
3,O=[As]c1ccccc1 (configuration not stated),inactive: -2.15%
4,O=P(Cl)(Cl)c1ccccc1,inactive: -7.16%
5,N#CSc1ccc([N+](=O)[O-])cc1[N+](=O)[O-],inactive: -8%
6,CCCCC(CC)CO[P+](=O)OCC(CC)CCCC (configuration not stated),inactive: 7.71%
7,O=C(Cl)OCCOC(=O)Cl,inactive: -4.24%
8,CN(C(=O)Cc1ccc(Cl)c(Cl)c1)[C@H]1CC[C@@]2(CCCO2)C[C@@H]1N1CCCC1,inactive: -0.801% [at 35.3 µM]
9,O=C1C2CC=CCC2C(=O)N1SC(Cl)(Cl)C(Cl)Cl (configuration not stated),inactive: -1.7% and inactive: -3.94%
10,Cc1cc([N+](=O)[O-])c(O)c([N+](=O)[O-])c1,inactive: -20.8%
11,CC(C)CCCCCCCOP(OCCCCCCCC(C)C)Oc1ccccc1,inactive: 0.263%
12,CN(C(=O)Cc1cccc2occc12)[C@H]1CC[C@@]2(CCCO2)C[C@@H]1N1CCCC1,inactive: -3.88%
13,CN(C(=O)Cc1ccccc1)[C@H]1CC[C@@]2(CCCO2)C[C@@H]1N1CCCC1,inactive: 14.9% [at 35.3 µM]
14,CCNC(C)Cc1ccc2c(c1)OCO2 (configuration not stated),inactive: 1.28%
15,ClP(Cl)c1ccccc1,inactive: 2.18%
16,CCC(C)(OOC(C)(C)C)OOC(C)(C)C,inactive: -12.4% [at 15.8 µM]
17,COC(=O)Cl,inactive: -3.96%
18,O=[N+]([O-])c1ccc(S(=O)(=O)O)c([N+](=O)[O-])c1,inactive: 1.08%
19,O=P(Cl)(Oc1ccccc1)Oc1ccccc1,inactive: -9.72%
20,CCCCOP(OCCCC)OCCCC,inactive: -7.1%
21,O=[N+]([O-])c1ccc([N+](=O)[O-])cc1,inactive: -9.36%
22,CCCCO[P+](=O)OCCCC,inactive: -1.11% and inactive: 0.166%
23,Cc1cc([N+](=O)[O-])cc([N+](=O)[O-])c1O,inactive: 0.39% and inactive: -8.85%
24,COP(=S)(Cl)OC,inactive: -3.33%
25,O=[p+]1oc2ccccc2c2ccccc21 (configuration not stated),inactive: -1.04%
26,O=[P+](Oc1ccccc1)Oc1ccccc1,inactive: 0.413%
27,CCCCCCCCCCCCCC[P+](CCCCCC)(CCCCCC)CCCCCC,inactive: -1.58%
28,CCOP(=S)(CC)Sc1ccccc1 (configuration not stated),inactive: -7.96%
29,CCOC(=O)Cl,inactive: -5.75%
30,O=C(Cl)Oc1ccccc1,inactive: 1.86%
